Values quoted from earlier work, collected in PMC3491360 (ACS medicinal chemistry letters, 2012).

Chains of the proteins cited; added tags and fusions are not shown.
UniProt P0DMS8, whole entry: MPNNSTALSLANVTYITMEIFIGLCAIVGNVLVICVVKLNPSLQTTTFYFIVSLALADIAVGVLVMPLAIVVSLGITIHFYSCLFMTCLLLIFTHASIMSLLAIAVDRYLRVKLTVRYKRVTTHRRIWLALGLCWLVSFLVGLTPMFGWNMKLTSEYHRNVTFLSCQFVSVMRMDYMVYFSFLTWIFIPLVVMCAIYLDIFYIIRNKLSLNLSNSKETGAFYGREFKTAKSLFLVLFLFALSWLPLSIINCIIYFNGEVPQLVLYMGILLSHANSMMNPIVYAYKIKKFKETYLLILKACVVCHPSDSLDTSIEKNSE

Biological target: hA3AR (Homo sapiens, UniProt P0DMS8)
Details: read-out: Affinity (Ki) hA3; CHO cell membranes; ref Melman et al.[19]; cited from earlier work

SMILES: OC1C(O)C(n2cnc3c(NCc4cccc(Cl)c4)nc(Cl)nc32)C2CC12 (stereo not shown) [Compound 2b]
- Ki: 1.06 nM
